# From patent EP0187057A1, “2-Phenyl-isopropyl-allophanate, preparation and pharmaceutical application” (priority 1984, dated 1986)
# Tested on: crises pentétrazoliques
# Experiment: Convulsant and lethal effects of subcutaneous pentetrazol (125 mg/kg)
# Type: in vivo
# Conditions: index thérapeutique absolu, souris
# Excerpt: Propriétés anticonvulsivantes : • On a effectué, pour déterminer ces propriétés anticonvulsivantes, des expérimentations sur le SCS 289 en procédant à des essais de protection : • - chez le lapin soumis à une transélectrification cranienne génératrice de crises épileptiformes de type "grand mal" ou recevant une infusion veineuse de pentétrazol provoquant l'apparition de myoclonies palpébrales; • - chez la souris recevant, par voie sous-cutanée des doses croissantes de pentétrazol entraînant convulsions et mort ou soumise à une transélectrification transcranienne à basse fréquence génératrice de crises psychomotrices.
# Pour déceler une synergie d'action antagoniste vis-à-vis des effets convulsivants et létaux du pentétrazol injecté par voie sous-cutanée chez la souris à la dose de 125 mg/kg, on a déterminé avec plus de précision la DE50 du SCS 289 et on a recherché si l'association avec le SCS 35 apportait un surcroit appréciable d'activité.
# On n'a retenu comme significative que la protection à l'égard des effets létaux observés sur 24 heures.
smiles,measurement,value
CCCC(CCC)C(=O)O [Valproate de sodium],DL50/DE50 /pentétrazol,"6,9"
